From ChEMBL document CHEMBL4184302, “Virtual target screening reveals rosmarinic acid and salvianolic acid A inhibiting metallo- and serine-β-lactamases” (Bioorg Med Chem Lett, 2018)

What was measured:
Bacteria [1] = tested on: Bacteria
Bacteria [2] = tested on: Bacteria; remark: listed apart in the source

## O=C(/C=C/c1ccc(O)c(O)c1)O[C@H](Cc1ccc(O)c(O)c1)C(=O)O [ROSMARINIC ACID]
Bacteria [1]
  Ka: 9.85 ×10⁴ /M
Bacteria [2]
  Km: 37.4 µM
